Assay results: patent publication US9611262B2, “Substituted 2-azabicycles and their use as orexin receptor modulators” (JANSSEN PHARMACEUTICA NV, priority 2014, dated 2017)

By UniProt entry, the sequences of proteins in these tests, tags left out.
UniProt O43613, whole entry: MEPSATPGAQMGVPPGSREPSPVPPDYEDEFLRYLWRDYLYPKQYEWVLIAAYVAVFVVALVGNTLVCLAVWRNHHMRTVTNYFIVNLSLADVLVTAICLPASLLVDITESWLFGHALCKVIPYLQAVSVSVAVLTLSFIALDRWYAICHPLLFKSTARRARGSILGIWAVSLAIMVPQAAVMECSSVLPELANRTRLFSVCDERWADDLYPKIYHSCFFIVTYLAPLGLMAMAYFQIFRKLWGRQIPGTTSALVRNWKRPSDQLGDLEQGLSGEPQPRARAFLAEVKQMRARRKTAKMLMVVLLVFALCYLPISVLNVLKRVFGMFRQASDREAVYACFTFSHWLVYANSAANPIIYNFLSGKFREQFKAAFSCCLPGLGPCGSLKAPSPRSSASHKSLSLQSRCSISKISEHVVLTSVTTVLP

What was measured:
[1] = target: rat orexin 1 receptor (Rattus norvegicus, UniProt P56718); assay: Rat orexin 1 receptor radioligand binding (competitive); details: HEK293 cells stably expressing rat orexin 1 receptor; 4 nM radioligand; averages of 2-20 runs; read-out: rOX1 Ki
Method: (§1) The in vitro affinity of the compounds of the invention for the rat/human orexin 1 and human orexin 2 receptors was determined by competitive radioligand binding using [^3H](1-(5-(2-fluoro-phenyl)-2-methyl-thiazol-4-yl)-1-((S)-2-(5-phenyl-(1,3,4)oxadiazol-2-ylmethyl)-pyrrolidin-1-yl)-methanone) (Langmead et al., 2004) and [^3H]EMPA (n-ethyl-2[96-methoxy-pyridin-3-yl)-(toluene-2-sulfonyl)-amino]-N-pyridin-3-ylmethyl acetamide), respectively (Langmead et al., 2004, British Journal of Pharmacology 141:340-346; Malherbe et al., 2004, British Journal of Pharmacology 156:1326-41).
(§2) Data are analyzed using pc-Sandy macro and graphed on Graphpad Prism 5. For analysis, each concentration point is averaged from triplicate values and the averaged values are plotted on Graphpad Prism. The IC50 was determined by applying the following equation (GraphPad Prism 5.0, San Diego) for one site competition where X=log (concentration) and Y=specific binding. Top denotes the total [^3H]— (1-(5-(2-fluoro-phenyl)-2-methyl-thiazol-4-yl)-1-((S)-2-(5-phenyl-(1,3,4)oxadiazol-2-ylmethyl)-pyrrolidin-1-yl)-methanone) binding, bottom denotes the nonspecific [^3H]— (1-(5-(2-fluoro-phenyl)-2-methyl-thiazol-4-yl)-1-((S)-2-(5-phenyl-(1,3,4)oxadiazol-2-ylmethyl)-pyrrolidin-1-yl)-methanone) binding. Graphpad Prism calculates Ki value from IC50 and the pre-determined Kd values for [^3H]— (1-(5-(2-fluoro-phenyl)-2-methyl-thiazol-4-yl)-1-((S)-2-(5-phenyl-(1,3,4)oxadiazol-2-ylmethyl)-pyrrolidin-1-yl)-methanone) and [^3H]-EMPA. The Ki for each compound is then uploaded into 3DX. Each run comprises individual compounds in triplicate. The data in Table 1 and Table 2 represent averages from between 2-20 runs
(§3) Rat and Human Orexin 1 Receptor Radioligand Binding Studies
(§4) Human Embryonic Kidney 293 cells (HEK293) stably expressing rat orexin 1 receptor (Genebank accession number NM_001525) or Chinese ovary cells (CHO) stably expressing human orexin 1 receptor (Genebank accession number […]) were grown to confluency in DMEM (Hyclone, cat # SH30022), 10% FBS, 1× Pen/Strep, 1× sodium pyruvate, 10 mM HEPES, 600 μg/mL G418 and DMEM/F12 (Gibco, Cat #11039), 10% FBS, 1× Pen/Strep, 600 μg/mL G418 media, respectively on 150 cm^2 tissue culture plates, washed with 5 mM EDTA in PBS (HyClone Dulbecco's Phosphate Buffered Saline 1× with Calcium and Magnesium, Cat # SH30264.01, hereafter referred to simply as PBS) and scraped into 50 ml tubes. After centrifugation (2K×G, 5 min at 4° C.), the supernatant was aspirated and the pellets frozen and stored at −80° C. Cells were resuspended in PBS in the presence of 1 tablet of protease inhibitor cocktail (Roche, Cat. #11836145001) per 50 mL. […] Competition binding experiments in 96 well polypropylene plates were performed using [^3H]— (1-(5-(2-fluoro-phenyl)-2-methyl-thiazol-4-yl)-1-((S)-2-(5-phenyl-(1,3,4)oxadiazol-2-ylmethyl)-pyrrolidin-1-yl)-methanone) (Moraveck Corporation, specific activity=35.3 Ci/mmol), diluted to a 10 nM concentration in PBS (4 nM final). Compounds were solubilized in 100% DMSO (Acros Organics, Cat. #61042-1000) and tested over a range of 7 concentrations (from 0.1 nM to 10 μM). The final concentration of DMSO in the reactions is equal to or less than 0.1%. Total and nonspecific binding was determined in the absence and presence of 10 μM almorexant. The total volume of each reaction is 200 μL (20 μL of diluted compounds, 80 μL of [^3H]— (1-(5-(2-fluoro-phenyl)-2-methyl-thiazol-4-yl)-1-((S)-2-(5-phenyl-(1,3,4)oxadiazol-2-ylmethyl)-pyrrolidin-1-yl)-methanone) diluted in PBS and 100 μL of the cell suspension). Reactions were run for 60 min at room temperature and terminated by filtration through GF/C filter plates (PerkinElmer, Cat. #6005174) presoaked in 0.3% polyethylenimine using the cell harvester (PerkinElmer Filtermate). The plates were washed 3 times by aspirating 30 ml PBS through the plates. Plates were dried in 55° C. oven for 60 min, scintillation fluid was added, and the radioactivity was counted on a Topcount (Packard). […]

[2] = target: human orexin 1 receptor (Homo sapiens (Human), UniProt O43613); assay: Human orexin 1 receptor radioligand binding (competitive); details: CHO cells stably expressing human orexin 1 receptor; 4 nM radioligand; averages of 2-20 runs; read-out: hOX1 Ki
Method: as §1, §2, §3, §4

| Ki [1] [nM] | Ki [2] [nM] | SMILES |
| --- | --- | --- |
| 76 | 73 | Cc1ccc(-n2nccn2)c(C(=O)N2C(CC(C)C)C3CC(Oc4ccc(C(F)(F)F)cn4)C2C3)n1 (racemic) [Example 210, (R/S)-[2-isobutyl-5-[[5-(trifluoromethyl)-2-pyridyl]oxy]-3-azabicyclo[2.2.1]heptan-3-yl]-[6-methyl-3-(triazol-2-yl)-2-pyridyl]methanone] |
| 2 | 3 | Cc1ccc(-n2nccn2)c(C(=O)N2[C@H](C)[C@H]3C[C@@H](Oc4cnc5ccccc5c4)[C@@H]2C3)n1 (relative stereo) [Example 185, (6-methyl-3-(2H-1,2,3-triazol-2-yl)pyridin-2-yl)((1S*,3R*,4R*,6R*)-3-methyl-6-(quinolin-3-yloxy)-2-azabicyclo[2.2.1]heptan-2-yl)methanone] |
| 3 | 3 | C[C@@H]1[C@H]2C[C@@H](Nc3ccc(C(F)(F)F)cn3)[C@H](C2)N1C(=O)c1cccc(F)c1-n1nccn1 (relative stereo) [Example 65, (3-fluoro-2-(2H-1,2,3-triazol-2-yl)phenyl)((1S*,3R*,4S*,6R*)-3-methyl-6-((5-(trifluoromethyl)pyridin-2-yl)amino)-2-azabicyclo[2.2.1]heptan-2-yl)methanone] |
| 20 | 38 | Cc1ccc(-c2ncccn2)c(C(=O)N2C(C)C3CC(Oc4ccc(C(F)(F)F)cn4)C2C3)n1 (racemic) [Example 16, (R/S)-(6-methyl-3-(pyrimidin-2-yl)pyridin-2-yl)(3-methyl-6-((5-(trifluoromethyl)pyridin-2-yl)oxy)-2-azabicyclo[2.2.1]heptan-2-yl)methanone] |
| 11 | 23 | Cc1cnc(C(=O)N2C(C)C3CC(Nc4ccc(C(F)(F)F)cn4)C2C3)c(-n2nccn2)c1 (racemic) [Example 61, (R/S)-(5-methyl-3-(2H-1,2,3-triazol-2-yl)pyridin-2-yl)(3-methyl-6-((5-(trifluoromethyl)pyridin-2-yl)amino)-2-azabicyclo[2.2.1]heptan-2-yl)methanone] |
| 19 | 11 | Cc1ccc(-n2nccn2)c(C(=O)N2C(C)C3CC(Nc4cnc(C(F)(F)F)cn4)C2C3)n1 (single isomer, unassigned) [Example 69, (R/S)-(6-methyl-3-(2H-1,2,3-triazol-2-yl)pyridin-2-yl)(3-methyl-6-((5-(trifluoromethyl)pyrazin-2-yl)amino)-2-azabicyclo[2.2.1]heptan-2-yl)methanone] |
| 5100 |  | CC1C2CC(Nc3cnc(C(F)(F)F)cn3)C(C2)N1C(=O)c1ccccc1-n1nccn1 (single isomer, unassigned) [Example 5A, (2-(2H-1,2,3-triazol-2-yl)phenyl)((1R*,3R*,4R*,6S*)-3-methyl-6-((5-(trifluoromethyl)pyrazin-2-yl)amino)-2-azabicyclo[2.2.1]heptan-2-yl)methanone] |
| 1240 |  | Cc1ccc(-n2nccn2)c(C(=O)N2C(C)C3CC(Oc4ccc(C(F)(F)F)cn4)C2C3)n1 (single isomer, unassigned) [Example 22A, (6-methyl-3-(2H-1,2,3-triazol-2-yl)pyridin-2-yl)((1R*,3S*,4S*,6S*)-3-methyl-6-((5-(trifluoromethyl)pyridin-2-yl)oxy)-2-azabicyclo[2.2.1]heptan-2-yl)methanone] |
| 8 |  | [2H]C([2H])([2H])[C@]1([2H])[C@H]2C[C@@H](Oc3ccc(C(F)(F)F)cn3)[C@H](C2)N1C(=O)c1nc(C)ccc1-n1nccn1 [Example 165, [(1R,2R,4S,5R)-2-deuterio-2-(trideuteriomethyl)-5-[[5-(trifluoromethyl)-2-pyridyl]oxy]-3-azabicyclo[2.2.1]heptan-3-yl]-[6-methyl-3-(triazol-2-yl)-2-pyridyl]methanone] |
